Test results taken from patent publication US9751885B2, “Cyclopropanamine compound and use thereof” (Takeda Pharmaceutical Company Limited, priority 2012, dated 2017).
Counter-ions that a name gives are not always drawn.

By UniProt entry, the sequences of proteins in these tests, tags left out.
UniProt P21397, whole entry: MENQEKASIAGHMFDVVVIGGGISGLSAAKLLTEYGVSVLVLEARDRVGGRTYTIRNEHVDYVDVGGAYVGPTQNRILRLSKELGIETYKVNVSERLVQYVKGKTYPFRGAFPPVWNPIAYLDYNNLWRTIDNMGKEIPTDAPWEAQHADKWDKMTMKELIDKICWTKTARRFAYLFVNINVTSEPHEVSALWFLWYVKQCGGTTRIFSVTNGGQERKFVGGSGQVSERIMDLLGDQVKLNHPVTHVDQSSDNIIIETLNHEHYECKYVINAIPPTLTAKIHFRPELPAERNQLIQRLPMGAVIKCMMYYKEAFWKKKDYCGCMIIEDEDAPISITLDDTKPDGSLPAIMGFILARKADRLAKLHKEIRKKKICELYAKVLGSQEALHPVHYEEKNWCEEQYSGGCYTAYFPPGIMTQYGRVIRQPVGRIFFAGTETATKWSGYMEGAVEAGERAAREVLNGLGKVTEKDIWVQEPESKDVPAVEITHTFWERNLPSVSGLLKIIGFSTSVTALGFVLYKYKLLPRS
UniProt P27338, whole entry: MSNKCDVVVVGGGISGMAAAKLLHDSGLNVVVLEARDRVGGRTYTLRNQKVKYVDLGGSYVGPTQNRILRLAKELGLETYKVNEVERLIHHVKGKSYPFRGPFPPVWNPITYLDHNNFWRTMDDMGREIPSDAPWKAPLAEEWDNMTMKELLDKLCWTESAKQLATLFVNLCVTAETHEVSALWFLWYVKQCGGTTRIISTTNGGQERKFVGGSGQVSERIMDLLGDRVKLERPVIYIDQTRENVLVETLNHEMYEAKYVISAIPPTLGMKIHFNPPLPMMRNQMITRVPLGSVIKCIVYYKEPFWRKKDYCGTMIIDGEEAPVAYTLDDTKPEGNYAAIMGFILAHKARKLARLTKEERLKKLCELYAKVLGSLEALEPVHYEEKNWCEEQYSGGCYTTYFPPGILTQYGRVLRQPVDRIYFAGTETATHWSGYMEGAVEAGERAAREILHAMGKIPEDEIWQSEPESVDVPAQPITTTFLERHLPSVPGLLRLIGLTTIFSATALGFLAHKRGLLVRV

Key:
MAO-A enzyme = MAO-A enzyme (Homo sapiens (Human), UniProt P21397); assay: Measurement of MAO-A inhibitory activity (MAO-Glo Assay); type: biochemical
MAO-B enzyme = MAO-B enzyme (Homo sapiens (Human), UniProt P27338); assay: Measurement of MAO-B inhibitory activity (MAO-Glo Assay); conditions: read-out: MAO-B IC50 value;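 also: luminescence read-out, compound preincubated 10 min with enzyme then reacted 60 min at room temperature, inhibition relative to enzyme reaction without compound, blank lacking enzyme and compound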

Row | SMILES | IC50 (MAO-A enzyme) [µM] | IC50 (MAO-B enzyme) [µM]
1 | Cc1nn(C)cc1NC(=O)c1cccc([C@@H]2C[C@H]2NCC(C)(C)C)c1 (relative stereo) [Example 157, 3-(trans-2-((2,2-dimethylpropyl)amino)cyclopropyl)-N-(1,3-dimethyl-1H-pyrazol-4-yl)benzamide dihydrochloride] | > 10 | > 10
2 | Cc1ccc(C(=O)Nc2cnn(C)c2)cc1[C@@H]1C[C@H]1NC1CCCC1 (relative stereo) [Example 239, 3-(trans-2-(cyclopentylamino)cyclopropyl)-4-methyl-N-(1-methyl-1H-pyrazol-4-yl)benzamide hydrochloride] | > 10 | > 10
3 | N[C@@H]1C[C@H]1c1cccc(C(=O)Nc2ccc(F)cc2)c1 (relative stereo) [Example 72, 3-(trans-2-aminocyclopropyl)-N-(4-fluorophenyl)benzamide hydrochloride] | > 10 | 5.7
4 | O=C(NC1CCN(Cc2ccccc2)C1)c1cccc(C2CC2NCC2CC2)c1 (stereo not drawn) [Example 118, N-(1-benzylpyrrolidin-3-yl)-3-(trans-2-((cyclopropylmethyl)amino)cyclopropyl)benzamide bis(trifluoroacetate)] | > 10 | > 10
5 | Cn1cc(NC(=O)c2cccc([C@@H]3C[C@H]3NC3CCC(F)(F)CC3)c2)cn1 (relative stereo) [Example 205, 3-(trans-2-((4,4-difluorocyclohexyl)amino)cyclopropyl)-N-(1-methyl-1H-pyrazol-4-yl)benzamide dihydrochloride] | > 10 | > 10
6 | Cc1ccc(C(=O)Nc2cnn(C)c2)cc1[C@@H]1C[C@H]1NC1CCC1 (relative stereo) [Example 238, 3-(trans-2-(cyclobutylamino)cyclopropyl)-4-methyl-N-(1-methyl-1H-pyrazol-4-yl)benzamide hydrochloride] | > 10 | > 10
7 | Cn1cc(NC(=O)c2cccc([C@@H]3C[C@H]3N)c2)cn1 (relative stereo) [Example 55, 3-(trans-2-aminocyclopropyl)-N-(1-methyl-1H-pyrazol-4-yl)benzamide dihydrochloride] | > 10 | > 10
8 | Cc1ccc(C(=O)NC2CCOCC2)cc1[C@@H]1C[C@H]1NCC1CC1 (relative stereo) [Example 230, 3-(trans-2-((cyclopropylmethyl)amino)cyclopropyl)-4-methyl-N-(tetrahydro-2H-pyran-4-yl)benzamide hydrochloride] | > 10 | > 10
9 | COc1ccc([C@@H]2C[C@H]2NC2CCC2)cc1C(=O)Nc1cnn(C)c1 (relative stereo) [Example 226, 5-(trans-2-(cyclobutylamino)cyclopropyl)-2-methoxy-N-(1-methyl-1H-pyrazol-4-yl)benzamide dihydrochloride] | > 10 | > 10
10 | Cn1cc(NC(=O)c2cccc([C@@H]3C[C@H]3NCC(C)(C)C)c2)cn1 (relative stereo) [Example 155, 3-(trans-2-((2,2-dimethylpropyl)amino)cyclopropyl)-N-(1-methyl-1H-pyrazol-4-yl)benzamide dihydrochloride] | > 10 | > 10
11 | Cn1cc(NC(=O)c2cc([C@@H]3C[C@H]3NC3CCC3)ccc2F)cn1 (relative stereo) [Example 225, 5-(trans-2-(cyclobutylamino)cyclopropyl)-2-fluoro-N-(1-methyl-1H-pyrazol-4-yl)benzamide dihydrochloride] | > 10 | > 10
12 | N[C@@H]1C[C@H]1c1cccc(C(=O)NCc2ccccc2)c1 (relative stereo) [Example 12, 3-(trans-2-aminocyclopropyl)-N-benzylbenzamide hydrochloride] | 4 | > 10
13 | CC(C)(C)n1cc(NC(=O)c2cccc([C@@H]3C[C@H]3NC3CCN(C4CC4)CC3)c2)cn1 (relative stereo) [Example 195, N-(1-tert-butyl-1H-pyrazol-4-yl)-3-(trans-2-((1-cyclopropylpiperidin-4-yl)amino)cyclopropyl)benzamide dihydrochloride] | > 10 | > 10
14 | O=C(NC1CCOCC1)c1ccc(F)c([C@@H]2C[C@H]2NCC2CC2)c1 (relative stereo) [Example 229, 3-(trans-2-((cyclopropylmethyl)amino)cyclopropyl)-4-fluoro-N-(tetrahydro-2H-pyran-4-yl)benzamide hydrochloride] | > 10 | > 10
15 | O=C(Nc1cccc(-c2ccccc2)c1)c1cccc([C@@H]2C[C@H]2NCC2CC2)c1 (relative stereo) [Example 130, N-(biphenyl-3-yl)-3-(trans-2-((cyclopropylmethyl)amino)cyclopropyl)benzamide trifluoroacetate] | 7.2 | > 10
16 | NC1CC1c1cccc(C(=O)NC2CCCC2)c1 (stereo not drawn) [Example 247, 3-(trans-2-aminocyclopropyl)-N-cyclopentylbenzamide hydrochloride [optical isomer, compound derived from methyl 3-(trans-2-((tert-butoxycarbonyl)amino)cyclopropyl)benzoate (optical isomer, retention time long)]] | > 10 | > 10
17 | Cc1cc(NC(=O)c2cccc([C@@H]3C[C@H]3NCC3CC3)c2)n(C)n1 (relative stereo) [Example 107, 3-(trans-2-((cyclopropylmethyl)amino)cyclopropyl)-N-(1,3-dimethyl-1H-pyrazol-5-yl)benzamide dihydrochloride] | > 10 | > 10
18 | O=C(NC1CCCC1)c1cc([C@@H]2C[C@H]2NC2CCOCC2)ccc1F (relative stereo) [Example 213, N-cyclopentyl-2-fluoro-5-(trans-2-(tetrahydro-2H-pyran-4-ylamino)cyclopropyl)benzamide hydrochloride] | > 10 | > 10
19 | O=C(Nc1ccc2[nH]cnc2c1)c1cccc([C@@H]2C[C@H]2NCC2CC2)c1 (relative stereo) [Example 145, N-(1H-benzimidazol-5-yl)-3-(trans-2-((cyclopropylmethyl)amino)cyclopropyl)benzamide bis(trifluoroacetate)] | > 10 | > 10
20 | COc1ccc([C@@H]2C[C@H]2NC2CCC(F)(F)CC2)cc1C(=O)Nc1nnc(C)s1 (relative stereo) [Example 222, 5-(trans-2-((4,4-difluorocyclohexyl)amino)cyclopropyl)-2-methoxy-N-(5-methyl-1,3,4-thiadiazol-2-yl)benzamide dihydrochloride] | > 10 | > 10
21 | COc1ccc(C(=O)Nc2nnc(C)s2)cc1[C@@H]1C[C@H]1NCC1CC1 (relative stereo) [Example 162, 3-(trans-2-((cyclopropylmethyl)amino)cyclopropyl)-4-methoxy-N-(5-methyl-1,3,4-thiadiazol-2-yl)benzamide dihydrochloride] | > 10 | > 10
22 | O=C(NC1CCCCNC1=O)c1cccc(C2CC2NCC2CC2)c1 (stereo not drawn) [Example 117, 3-(trans-2-((cyclopropylmethyl)amino)cyclopropyl)-N-(2-oxoazepan-3-yl) benzamide trifluoroacetate] | > 10 | > 10
23 | Cn1nc(-c2cccs2)cc1NC(=O)c1cccc([C@@H]2C[C@H]2NCC2CC2)c1 (relative stereo) [Example 136, 3-(trans-2-((cyclopropylmethyl)amino)cyclopropyl)-N-(1-methyl-3-(2-thienyl)-1H-pyrazol-5-yl)benzamide bis(trifluoroacetate)] | > 10 | > 10
24 | Cn1cc(NC(=O)c2cccc([C@@H]3C[C@H]3N(C3CCC3)C3CCC3)c2)cn1 (relative stereo) [Example 170, 3-(trans-2-(dicyclobutylamino)cyclopropyl)-N-(1-methyl-1H-pyrazol-4-yl)benzamide dihydrochloride] | > 10 | > 10
25 | O=C(Nc1ccc(CN2CCS(=O)(=O)CC2)cc1)c1cccc([C@@H]2C[C@H]2NCC2CC2)c1 (relative stereo) [Example 126, 3-(trans-2-((cyclopropylmethyl)amino)cyclopropyl)-N-(4-((1,1-dioxidothiomorpholin-4-yl)methyl)phenyl)benzamide bis (trifluoroacetate)] | > 10 | > 10
26 | O=C(c1cccc([C@@H]2C[C@H]2NCC2CC2)c1)N1Cc2ccccc2C1 (relative stereo) [Example 113, (3-(trans-2-((cyclopropylmethyl)amino)cyclopropyl)phenyl) (1,3-dihydro-2H-isoindol-2-yl)methanone trifluoroacetate] | 2.9 | > 10
27 | N[C@@H]1C[C@H]1c1cccc(C(=O)Nc2cnn(CC3CC3)c2)c1 (relative stereo) [Example 63, 3-(trans-2-aminocyclopropyl)-N-(1-(cyclopropylmethyl)-1H-pyrazol-4-yl)benzamide dihydrochloride] | > 10 | > 10
28 | CC(C)(C)CN[C@@H]1C[C@H]1c1cccc(C(=O)Nc2cnn(C(C)(C)C)c2)c1 (relative stereo) [Example 88, N-(1-tert-butyl-1H-pyrazol-4-yl)-3-(trans-2-((2,2-dimethylpropyl)amino)cyclopropyl)benzamide dihydrochloride] | > 10 | > 10
29 | O=C(Nc1ccc(N2CCOCC2)cc1)c1cccc([C@@H]2C[C@H]2NCC2CC2)c1 (relative stereo) [Example 125, 3-(trans-2-((cyclopropylmethyl)amino)cyclopropyl)-N-(4-(morpholin-4-yl)phenyl)benzamide bis(trifluoroacetate)] | > 10 | > 10
30 | O=C(Nc1ccc2c(c1)nc1n2CCCCC1)c1cccc([C@@H]2C[C@H]2NCC2CC2)c1 (relative stereo) [Example 148, 3-(trans-2-((cyclopropylmethyl)amino)cyclopropyl)-N-(7,8,9,10-tetrahydro-6H-azepino[1,2-a]benzimidazol-3-yl)benzamide bis(trifluoroacetate)] | > 10 | > 10
